{"sequences": {"note": "By UniProt entry, the sequences of proteins in these tests, tags left out.", "UniProt P35414, whole entry": "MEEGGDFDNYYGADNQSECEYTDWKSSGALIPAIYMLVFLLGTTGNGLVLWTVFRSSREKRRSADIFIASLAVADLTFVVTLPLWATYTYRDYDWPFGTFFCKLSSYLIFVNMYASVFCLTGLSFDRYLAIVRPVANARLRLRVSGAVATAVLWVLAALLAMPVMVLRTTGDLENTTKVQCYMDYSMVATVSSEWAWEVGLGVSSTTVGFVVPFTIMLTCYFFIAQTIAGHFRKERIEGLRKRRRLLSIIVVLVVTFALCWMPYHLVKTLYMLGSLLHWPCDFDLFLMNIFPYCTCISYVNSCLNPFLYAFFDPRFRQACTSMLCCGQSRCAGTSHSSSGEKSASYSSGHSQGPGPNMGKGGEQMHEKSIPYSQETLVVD"}, "source": "PubChem BioAssay AID2520", "about": "(Sanford-Burnham Center for Chemical Genomics, 2010)", "note": "This is a selection; strong and weak results do not stand in their true shares. Calls of active or inactive are those of the source.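 Rule for the calls: active = activation more than six SD over the plate average, tested at 20 µM; inactive = the rest.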"}
{"biological_target": "Apelin receptor (Homo sapiens) (UniProt P35414)", "assay": "agonists of human apelin receptor APJ, primary screen, CHO-K1 cells, PathHunter beta-arrestin, luminescence (AID 2520)", "conditions": "at 20 µM, active compounds read high, 0% DMSO wells, 100% apelin", "outline": "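system = engineered CHO-K1 APJ arrestin reporter cells | input = 1000 cells per well | timing = overnight seeding, 90 min compound at 25 °C, 1 h detection | measured by = enzyme-fragment complementation luminescence | read-out = beta-arrestin recruitment to APJ as agonist activity, luminescent signal | control set = negative DMSO alone, positive Apelin-13 at 10 nM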"}
{"smiles": "CCC(=O)N(c1ccccc1)C1(COC)CCN(CCc2cccs2)CC1", "activation": "inactive: 0.54%"}
{"smiles": "CCC(=O)N(c1ccccc1)C1(COC)CCN(CCn2nnn(CC)c2=O)CC1", "activation": "inactive: -2.74%"}
